Test results as given in patent US7959743B2, “Lithium salts of fatty alcohol sulphates for cleaning boreholes, boring devices and borings” (priority 2004, dated 2011).

How the values were obtained:
[1] = marine aerobic degradation
Protocol: (§1) An aerobic degradation test was also carried out (Marine Bodies ISO/TC 147/SC 5/WG 4 N 141).

[2] = system: Corophium volutator; details: sediment bioassay
[3] = system: Skeletonema costatum; assay: Toxicity on Skeletonema costatum (ISO 10253 1988)
Protocol: as §1

Substance: Lithium lauryl sulfate, C8-12 [E1]
- Aerobic degradation (28 d) in % [1]: 98%
- Corophium volutator 10 d, LC 50 [2]: 6585 mg/kg
- Skeletonema 72 h EC 50 [3]: 33 µg/mL
